Laboratory results published in patent publication US9845310B2 (priority 2015, dated 2017).

Tested on: heart failure rat model
Type: in vivo
Conditions: male Lewis rats, heart failure by permanent ligation of left descending coronary artery, ejection fraction <35%; dosed acutely for 30 min
Description: Male Lewis rats (Charles River, USA) at 2-3 months of age were used for the study. […] APJ agonists were administered dose dependently acutely for a period of 30 min.

`COc1cccc(OC)c1-n1c(NS(=O)(=O)[C@@H](C)[C@H](O)c2ncc(C)cn2)nnc1-c1cncc(C)c1` [Example 371.0, (1R,2S)-N-(4-(2,6-dimethoxyphenyl)-5-(5-methylpyridin-3-yl)-4H-1,2,4-triazol-3-yl)-1-hydroxy-1-(5-methylpyrimidin-2-yl)propane-2-sulfonamide] was tested. Which “cardiac contractility as measured by dP/dtmax (derivative of left ventricular pressure)” value did it give?
The value was “increase in cardiac contractility”.
